The numbers were not newly measured in patent publication US6100254A, “Inhibitors of protein tyrosine kinases” (Board of Regents, The University of Texas System, priority 1997, dated 2000), which cites them from elsewhere.

The conditions of the data set: clearance from the plasma; cited from earlier work.

Take `CC[C@]1(O)C[C@H]2CN(CCc3c([nH]c4ccccc34)[C@@](C(=O)OC)(c3cc4c(cc3OC)N(C=O)[C@H]3[C@@](O)(C(=O)OC)[C@H](OC(C)=O)[C@]5(CC)C=CCN6CC[C@]43[C@@H]65)C2)C1` [Vincristine]: the terminal half-life entry is on record as “about 24 hours”.
